Results from patent US6218112A, “Optimization of gene delivery and gene delivery system” (Cobra Therapeutics Limited, priority 1997, dated 2001).

Assay: Solubility of complexes prepared with NBC peptides
Details: without salt at >20 μg/ml

Substance: NH2-PKKKRKVEKKSPKKAKKPAAKSPAKKAKAVKPK-AAKPKKPKKKRKVEKKSKKAKKPAAC(Acm)--COOH
- solubility of complexes: insoluble
